Measurements taken from ChEMBL document CHEMBL5032503, “Propranolol Activates the Orphan Nuclear Receptor TLX to Counteract Proliferation and Migration of Glioblastoma Cells” (J Med Chem, 2021).
Calls of active or inactive are those of the source. The calls are words filed in the database; no cut-off is given here.

Chains of the proteins cited; added tags and fusions are not shown. Lines headed by an entry give the natural chain unless they say otherwise; changes in a name come on top.
UniProt Q9Y466: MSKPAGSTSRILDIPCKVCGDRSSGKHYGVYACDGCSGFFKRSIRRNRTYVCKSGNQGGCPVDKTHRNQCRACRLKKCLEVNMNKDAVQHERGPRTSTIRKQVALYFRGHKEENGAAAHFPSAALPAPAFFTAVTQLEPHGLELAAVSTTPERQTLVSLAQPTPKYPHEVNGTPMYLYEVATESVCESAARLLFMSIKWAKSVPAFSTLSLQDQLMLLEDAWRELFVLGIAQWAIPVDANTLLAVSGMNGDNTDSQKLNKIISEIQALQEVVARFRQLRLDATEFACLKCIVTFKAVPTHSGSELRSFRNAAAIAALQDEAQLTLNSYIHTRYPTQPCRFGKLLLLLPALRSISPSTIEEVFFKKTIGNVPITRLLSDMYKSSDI

Molecular target: Nuclear receptor subfamily 2 group E member 1 (Homo sapiens, UniProt Q9Y466)
Experiment: Agonist activity at TAE expressed in human HEK293T cells coexpressing human full-length TLX/Gal4-VP 16 assessed as renilla luciferase reporter activity incubated for 14 hrs by Dual-glo luciferase
Assay type: cell-based

Activity: inactive
Structure (SMILES): CC(C)NCC(O)c1ccc(NS(C)(=O)=O)cc1 (racemic) [SOTALOL]
